Biological target: panel of 44 targets (GPCRs, ion channels, enzymes, transporters, nuclear receptors) (Homo sapiens, UniProt P08588)

Protein sequences, listed by entry. Tags and fused reporters are not part of them.
UniProt P08588, whole entry, looked up: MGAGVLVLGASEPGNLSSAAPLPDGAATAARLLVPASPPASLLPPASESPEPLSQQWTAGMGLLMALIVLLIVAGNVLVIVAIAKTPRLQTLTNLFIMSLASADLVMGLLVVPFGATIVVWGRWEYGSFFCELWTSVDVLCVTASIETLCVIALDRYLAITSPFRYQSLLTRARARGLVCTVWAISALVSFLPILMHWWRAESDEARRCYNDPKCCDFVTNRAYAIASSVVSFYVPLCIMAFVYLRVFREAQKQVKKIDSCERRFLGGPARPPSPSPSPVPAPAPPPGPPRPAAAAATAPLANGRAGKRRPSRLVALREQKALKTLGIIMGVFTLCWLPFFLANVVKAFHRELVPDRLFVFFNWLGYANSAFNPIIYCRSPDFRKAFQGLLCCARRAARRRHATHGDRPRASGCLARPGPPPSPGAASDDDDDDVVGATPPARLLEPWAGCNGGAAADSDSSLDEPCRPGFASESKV

C=CCc1ccccc1OCC(O)CNC(C)C (stereo not shown) [Alprenolol]
IC50: 43.7 nM
